{"sequences": {"note": "Protein sequences, listed by entry. Tags and fused reporters are not part of them. Residues count along the entry.", "UniProt P10721, 26-976": "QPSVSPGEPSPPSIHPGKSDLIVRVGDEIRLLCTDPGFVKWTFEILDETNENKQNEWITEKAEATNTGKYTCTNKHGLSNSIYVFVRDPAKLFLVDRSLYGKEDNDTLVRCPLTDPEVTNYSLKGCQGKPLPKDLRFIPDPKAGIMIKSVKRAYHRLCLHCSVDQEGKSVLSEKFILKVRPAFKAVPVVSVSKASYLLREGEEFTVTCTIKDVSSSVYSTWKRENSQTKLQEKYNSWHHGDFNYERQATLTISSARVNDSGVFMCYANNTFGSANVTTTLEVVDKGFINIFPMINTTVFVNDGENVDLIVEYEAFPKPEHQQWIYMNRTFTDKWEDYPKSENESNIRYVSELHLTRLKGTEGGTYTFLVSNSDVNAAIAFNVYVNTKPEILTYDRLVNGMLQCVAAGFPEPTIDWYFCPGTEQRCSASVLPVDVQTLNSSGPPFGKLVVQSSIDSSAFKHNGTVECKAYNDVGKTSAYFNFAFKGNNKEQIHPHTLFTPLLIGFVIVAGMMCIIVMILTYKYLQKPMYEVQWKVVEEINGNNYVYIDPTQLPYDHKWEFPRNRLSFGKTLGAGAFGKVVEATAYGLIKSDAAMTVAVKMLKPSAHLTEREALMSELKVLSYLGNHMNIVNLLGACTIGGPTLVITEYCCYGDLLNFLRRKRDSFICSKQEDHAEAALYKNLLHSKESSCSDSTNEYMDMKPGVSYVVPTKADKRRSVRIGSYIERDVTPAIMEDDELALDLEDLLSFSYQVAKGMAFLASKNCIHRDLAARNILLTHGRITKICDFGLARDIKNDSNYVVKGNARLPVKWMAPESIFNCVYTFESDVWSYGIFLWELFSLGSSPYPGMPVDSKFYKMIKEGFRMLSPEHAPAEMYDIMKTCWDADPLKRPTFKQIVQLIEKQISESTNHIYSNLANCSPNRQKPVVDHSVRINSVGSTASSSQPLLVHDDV", "UniProt P09619, 33-1106": "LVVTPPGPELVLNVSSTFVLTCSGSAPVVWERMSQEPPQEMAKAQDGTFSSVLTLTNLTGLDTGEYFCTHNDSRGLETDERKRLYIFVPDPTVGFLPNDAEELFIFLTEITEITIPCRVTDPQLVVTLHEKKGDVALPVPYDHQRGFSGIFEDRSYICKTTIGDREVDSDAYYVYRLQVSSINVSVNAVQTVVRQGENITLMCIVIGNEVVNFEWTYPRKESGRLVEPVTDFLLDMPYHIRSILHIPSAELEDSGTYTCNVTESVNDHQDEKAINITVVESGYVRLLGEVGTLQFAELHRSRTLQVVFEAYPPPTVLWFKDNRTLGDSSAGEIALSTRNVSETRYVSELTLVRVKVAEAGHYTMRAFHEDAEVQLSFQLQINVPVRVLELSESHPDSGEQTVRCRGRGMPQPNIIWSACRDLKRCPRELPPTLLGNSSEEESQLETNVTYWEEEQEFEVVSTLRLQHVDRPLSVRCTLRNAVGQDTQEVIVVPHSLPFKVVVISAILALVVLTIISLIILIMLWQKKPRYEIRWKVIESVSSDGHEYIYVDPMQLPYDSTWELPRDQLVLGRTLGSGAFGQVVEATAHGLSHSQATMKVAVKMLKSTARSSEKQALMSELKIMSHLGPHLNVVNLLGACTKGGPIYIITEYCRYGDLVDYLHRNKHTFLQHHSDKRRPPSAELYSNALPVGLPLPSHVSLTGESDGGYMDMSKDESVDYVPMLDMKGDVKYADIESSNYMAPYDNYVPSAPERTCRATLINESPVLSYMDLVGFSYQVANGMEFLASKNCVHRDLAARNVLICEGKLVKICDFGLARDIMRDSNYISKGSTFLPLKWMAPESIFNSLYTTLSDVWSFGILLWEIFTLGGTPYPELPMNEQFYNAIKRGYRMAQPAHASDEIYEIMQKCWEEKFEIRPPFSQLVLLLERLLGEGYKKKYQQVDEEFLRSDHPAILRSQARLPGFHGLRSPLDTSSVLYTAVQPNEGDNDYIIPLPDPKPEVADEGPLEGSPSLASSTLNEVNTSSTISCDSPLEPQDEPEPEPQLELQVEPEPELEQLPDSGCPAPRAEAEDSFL"}, "source": "patent US20100135983A1", "about": "“Anti-inflammatory compositions and methods” (Searete LLC, a limited liability corporation of the State …, priority 2008, published 2010)", "origin": "cited, not measured here", "key": {"[1]": {"molecular_target": "c-Kit (Homo sapiens, UniProt P10721)", "conditions": "at nanomolar concentrations"}, "[2]": {"molecular_target": "PDGFRβ (Homo sapiens, UniProt P09619)", "conditions": "at nanomolar concentrations"}}}
{"smiles": "Cc1nc(Nc2ncc(C(=O)Nc3c(C)cccc3Cl)s2)cc(N2CCN(CCO)CC2)n1.O", "note": "[dasatinib, N-(2-chloro-6-methylphenyl)-2-[[6-[4-(2-hydroxyethyl)-1-piperazinyl]-2-methyl-4-pyrimidinyl]amino]-5-thiazolecarboxamide, monohydrate]", "values": [{"measurement": "inhibition of c-Kit", "setting": "[1]", "result": "inhibits"}, {"measurement": "inhibition of PDGFRβ", "setting": "[2]", "result": "inhibits"}]}
